Assay results as given in publication PMC3361267 (Journal of Medicinal Chemistry, 2012).

Protein sequences, listed by entry. Tags and fused reporters are not part of them. Lines headed by an entry give the natural chain unless they say otherwise; changes in a name come on top.
UniProt Q9NPD5: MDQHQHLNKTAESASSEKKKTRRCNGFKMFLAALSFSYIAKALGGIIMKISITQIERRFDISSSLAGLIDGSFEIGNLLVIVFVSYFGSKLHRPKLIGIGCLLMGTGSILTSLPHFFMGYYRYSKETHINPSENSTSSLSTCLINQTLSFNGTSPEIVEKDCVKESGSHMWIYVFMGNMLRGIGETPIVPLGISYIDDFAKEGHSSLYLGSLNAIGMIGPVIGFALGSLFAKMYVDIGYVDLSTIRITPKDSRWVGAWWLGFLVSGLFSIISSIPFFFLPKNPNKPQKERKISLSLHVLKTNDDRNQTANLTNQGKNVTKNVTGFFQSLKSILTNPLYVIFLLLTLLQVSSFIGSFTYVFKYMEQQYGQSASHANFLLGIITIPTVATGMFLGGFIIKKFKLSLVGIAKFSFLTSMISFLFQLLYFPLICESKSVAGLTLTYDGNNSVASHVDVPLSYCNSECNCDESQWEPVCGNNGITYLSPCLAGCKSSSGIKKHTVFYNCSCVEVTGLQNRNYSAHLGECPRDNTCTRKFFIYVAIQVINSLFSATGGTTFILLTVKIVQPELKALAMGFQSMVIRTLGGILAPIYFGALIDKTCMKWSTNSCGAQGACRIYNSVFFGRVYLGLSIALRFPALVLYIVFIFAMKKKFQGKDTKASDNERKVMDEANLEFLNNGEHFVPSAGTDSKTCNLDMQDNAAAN

Target: OATP1B3 (Homo sapiens, UniProt Q9NPD5)

SMILES | OATP1B3 Inhib % [%]
C=C[C@H]1C[N@@]2CC[C@H]1C[C@@H]2[C@@H](O)c1ccnc2ccc(OC)cc12 [Quinidine] | 37.2
C=C[C@H]1C[N@@]2CC[C@H]1C[C@H]2[C@H](O)c1ccnc2ccc(OC)cc12 [Quinine] | -1.3
